Laboratory results from patent publication US7759375B2, “Epothilones C, D, E, and F, preparation and compositions” (priority 1996, dated 2010).

Sequences of proteins named here, by UniProt entry; tags and fusion partners are left off.
UniProt P02554, whole entry: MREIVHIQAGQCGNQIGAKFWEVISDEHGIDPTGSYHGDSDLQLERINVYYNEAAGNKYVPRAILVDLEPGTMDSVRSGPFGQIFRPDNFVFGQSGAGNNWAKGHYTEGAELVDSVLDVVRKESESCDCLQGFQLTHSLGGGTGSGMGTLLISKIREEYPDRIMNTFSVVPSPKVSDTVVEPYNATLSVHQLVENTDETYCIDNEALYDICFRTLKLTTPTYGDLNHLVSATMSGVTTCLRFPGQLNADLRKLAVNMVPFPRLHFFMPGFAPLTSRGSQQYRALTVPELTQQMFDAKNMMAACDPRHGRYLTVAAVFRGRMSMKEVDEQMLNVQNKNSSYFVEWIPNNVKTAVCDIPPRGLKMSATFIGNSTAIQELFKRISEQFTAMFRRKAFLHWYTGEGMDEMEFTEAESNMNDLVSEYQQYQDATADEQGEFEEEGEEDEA

Molecular target: T1, purified tubulin from pigs' brain (Sus scrofa, UniProt P02554)
T1 construct: purified tubulin from pigs' brain; from tissue; host or cells: pig brain
Assay type: biochemical, pig
Conditions: 0.9 mg of tubulin/ml, 1 μM sample concentration
Experimental: The epothilones according to the invention were tested with cell cultures (Table 2) and for promotion of polymerization (Table 3).
The polymerization test is an in vitro test using purified tubulin from pigs' brain. Evaluation is carried out photometrically.

C/C(=C\c1csc(CO)n1)[C@@H]1C[C@@H]2O[C@]2(C)CCC[C@H](C)[C@H](O)[C@@H](C)C(=O)C(C)(C)[C@@H](O)CC(=O)O1 [Epothilone F]
Time up to the half-maximal polymerization, Agent [%] (relative activity in % of the control) (control = 100, lowest values indicate the best activity): 26% | Time up to the half-maximal polymerization of the control, Agent [s] (average of experiments w-z, control 190 s): 50 s | Time up to the half-maximal polymerization of the control, measurement w (independent experiment w): 80 s | Time up to the half-maximal polymerization of the control, measurement x (independent experiment x): 40 s | Time up to the half-maximal polymerization of the control, measurement y (independent experiment y): 30 s | Time up to the half-maximal polymerization of the control, measurement z (independent experiment z): 50 s
